From publication PMC3560935 (Anesthesiology, 2011)

Sequences of proteins named here, by UniProt entry; tags and fusion partners are left off. A change or cut given only in a name is not applied to a line headed by its entry.
UniProt P35372, whole entry: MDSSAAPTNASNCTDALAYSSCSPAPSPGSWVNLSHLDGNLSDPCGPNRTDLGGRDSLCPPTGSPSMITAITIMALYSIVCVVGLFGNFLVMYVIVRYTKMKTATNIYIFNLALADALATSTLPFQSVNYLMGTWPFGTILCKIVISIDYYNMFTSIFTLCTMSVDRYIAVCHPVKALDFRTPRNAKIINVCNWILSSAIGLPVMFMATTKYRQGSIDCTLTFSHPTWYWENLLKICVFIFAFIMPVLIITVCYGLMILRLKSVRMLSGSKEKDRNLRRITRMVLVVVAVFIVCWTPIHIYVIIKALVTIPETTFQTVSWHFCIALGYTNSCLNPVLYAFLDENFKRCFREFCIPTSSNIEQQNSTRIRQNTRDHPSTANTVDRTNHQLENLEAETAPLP
UniProt P41145: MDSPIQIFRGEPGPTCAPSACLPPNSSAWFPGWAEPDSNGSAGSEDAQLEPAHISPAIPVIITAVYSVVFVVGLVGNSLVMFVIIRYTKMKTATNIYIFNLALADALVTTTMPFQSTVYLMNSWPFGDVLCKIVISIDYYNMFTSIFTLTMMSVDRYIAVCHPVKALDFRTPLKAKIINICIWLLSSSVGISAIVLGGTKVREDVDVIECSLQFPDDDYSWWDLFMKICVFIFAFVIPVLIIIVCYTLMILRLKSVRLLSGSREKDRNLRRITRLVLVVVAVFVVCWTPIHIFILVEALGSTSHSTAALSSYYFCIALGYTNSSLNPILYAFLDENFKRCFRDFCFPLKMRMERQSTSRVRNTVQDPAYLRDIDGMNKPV

What was measured:
[1] = molecular target: human mu opioid receptor (Homo sapiens, UniProt P35372)
[2] = molecular target: human kappa opioid receptor (Homo sapiens, UniProt P41145)

With `CO[C@]12CC[C@@]3(C[C@@H]1[C@](C)(O)C(C)(C)C)[C@H]1Cc4ccc(O[C@@H]5O[C@H](C(=O)O)[C@@H](O)[C@H](O)[C@H]5O)c5c4[C@@]3(CCN1CC1CC1)[C@H]2O5` [Buprenorphine-3-glucuronide, buprenorphine-3-glucuronide] the “inhibition of 3H-diprenorphine mu receptor binding (in words)” value [1] was “high affinity, with a Ki in the picomolar range”, the Ki ([1]; read-out: apparent Ki, Mu) was 4.9 ± 2.7 pM and the “apparent Ki, Kappa” value [2] was “N.B”.
